Test results as given in paper PMC10706425, “Enhancing the Antimicrobial Properties of Peptides through Cell-Penetrating Peptide Conjugation: A Comprehensive Assessment” (International Journal of Molecular Sciences, 2023).

Legend:
[1] = tested on: P. aeruginosa (ATCC 28753 strain); test: Antibacterial activity in liquid medium; assay type: cell-based, Pseudomonas aeruginosa; details: 15 h incubation; tested 0.75–12 µM; gentamicin 200 µM; Figures 3, 4
Excerpt: (§1) Two S. aureus strains were used: a susceptible strain 209P and a clinical isolate strain 129B (resistant to antibiotics: benzylpenicillin, clindamycin, erythromycin, oxacillin, sulfamethoxazole, and vancomycin). Two MRSA strains were included: a susceptible strain ATCC 43300 (resistant to antibiotics: methicillin, oxacillin (beta-lactam antibiotics), ampicillin (https://www.atcc.org/products/43300 (accessed on 11 November 2023)) and a clinical isolate strain SA 180 (resistant to antibiotics: benzylpenicillin and oxacillin (beta-lactam antibiotics), ciprofloxacin, clindamycin, erythromycin, levomycetin, sulfamethoxazole, and vancomycin). One B. cereus was used: a susceptible strain, IP 5832. Two P. aeruginosa strains were included: a susceptible strain, ATCC 28753, and a resistant strain, 2943. Two E. coli strains were used: a susceptible strain, K12, and a susceptible strain, MG1655.
(§2) Determination of the growth for the bacteria S. aureus strain 209P, MRSA strain ATCC 43300, B. cereus strain IP 5832, P. aeruginosa strain ATCC 28753, and E. coli strain K12 was performed using Mueller–Hinton Broth (MHB) (Sigma-Aldrich, St. Louis, MO, USA). Bacteria of S. aureus (strain 129B) and MRSA (strain SA 180-F) were grown on the brain-heart infusion (BHI) medium, and bacteria of P. aeruginosa (strain 2943) and E. coli (strain MG1655) were grown on the LB medium. […]

MRSA (ATCC 43300 strain) = test: Antibacterial activity in liquid medium; assay type: cell-based, Methicillin-resistant Staphylococcus aureus; details: 15 h incubation; tested 0.75–12 µM; gentamicin 200 µM; Figures 3, 4
Excerpt: as §1, §2

VTDFGVFVEIGGGGSRQIKIWFQNRRMKWKK [V31K^T]
Concentrations at which the peptide showed an antimicrobial effect (comparable to gentamicin) [1]: no significant antimicrobial effects
Concentrations at which the peptide showed an antimicrobial effect (comparable to gentamicin) (MRSA (ATCC 43300 strain)): no significant inhibitory effects
